For this test, the system named is A549 human lung carcinoma cells. Kind of test: cell death assay on methacrylate geldisk small molecule array, phase-contrast microscopy.

This is an account of results in patent US20030032203A1, “Small molecule microarrays” (published 2003).

The structures appear in SMILES notation.

Regarding `O=[As]c1ccccc1` (stereo not drawn), the “gel-like disk concentration harboring rounded cells (characteristic of dying cells)” value (18 hours at 37° C., phase-contrast microscope) is listed as “greater than 0.55 mM”. The “state of cancer cells on geldisk (FIG. 3)” value (geldisk containing a toxic small molecule) is “dead cancer cells”. In addition, where the note is “read-out: concentration of phenylarsine oxide causing a 50% loss of cell viability, concentration in gel-like disk, 18 hours at 37° C., counting number and extent of rounded cells on each spot”, the IC50 amounted to 1000 µM.
